According to ChEMBL document CHEMBL2396593, “Targeting mutant KRAS for anticancer therapeutics: a review of novel small molecule modulators” (J Med Chem, 2013):

Test system: T29Kt1
Experiment: Cytotoxicity against human T29Kt1 cells by SRB assay
Format: functional, cell-based

**Q.** `O=Cc1cn(Cc2ccc(Cl)cc2)c2ccccc12` was tested. Which Activity did it give?
**A.** Dose-dependent effect
